# Test results as given in PubChem BioAssay AID504414 (Broad Institute, 2011).
# Only a part is listed here, and it is no random draw. The source made the active and inactive calls.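 The calls were made as follows: active = highest replicate inhibition of at least 40%; inactive = the rest.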
# Biological target: Golgi-associated PDZ and coiled-coil motif-containing protein (Homo sapiens) (UniProt Q9HD26)
# Assay: disruption of CAL PDZ-reporter peptide interaction – biochemical, fluorescence polarization, Cer-tagged CAL PDZ, HTS, primary screen (AID 504414);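 also: plate controls were DMSO neutral control wells for no effect and unlabeled competitor peptide control wells for full effect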
# Conditions: purified CAL PDZ, TMR-peptide fluorescence polarization, 1 h; at 20 µM; stronger effect = higher value
row,Structure (SMILES),inhibition
1,Cc1cc(C)cc(OP(C)(=O)Nc2ccccn2)c1 (configuration not stated),inactive: -1.38%
2,CP(=O)(Nc1cccc(Br)c1)Oc1ccccc1 (configuration not stated),inactive: -1.75%
3,Cc1ccc(C)c(NP(C)(=O)Oc2ccccc2)c1 (configuration not stated),inactive: -0.241%
4,COc1ccccc1OP(C)(=O)Nc1cccc(Br)c1 (configuration not stated),inactive: -0.711%
5,Cc1cc(C)cc(OP(C)(=O)Nc2ccc(C)cc2C)c1 (configuration not stated),inactive: -0.866%
6,CCOC(=O)c1ccc(NP(C)(=O)Oc2cc(C)cc(C)c2)cc1 (configuration not stated),inactive: -1.77%
7,CC1=NCCc2c1[nH]c1ccccc21.O=[N+]([O-])c1cc([N+](=O)[O-])c(O)c([N+](=O)[O-])c1,inactive: -0.844%
8,O=C(O)c1cccc(Nc2c([N+](=O)[O-])cc([N+](=O)[O-])cc2[N+](=O)[O-])c1,inactive: -1.4%
9,CN1CCCCC1COC(=O)C1(O)c2ccccc2CCc2ccccc21 (configuration not stated),inactive: -2.75%
10,COc1ccccc1OP(C)(=O)Nc1c(C)cccc1C (configuration not stated),inactive: -2.06%
11,CCCOc1ccc(NP(C)(=O)Oc2ccc(Cl)cc2)cc1 (configuration not stated),inactive: -0.31%
12,CP(=O)(Nc1ccc(SC(F)(F)F)cc1)Oc1ccccc1 (configuration not stated),inactive: -2.31%
13,CCOC(=O)C(CC)C1=NC(C)(C)Cc2ccccc21.O=[N+]([O-])c1cc([N+](=O)[O-])c(O)c([N+](=O)[O-])c1 (configuration not stated),inactive: -2.2%
14,CC1=C2N=C(C=C3N=C(C(C)=C4[N-][C@@](C)([C@@H]5N=C1[C@](C)(CCC(=O)NC[C@@H](C)OP(=O)([O-])O[C@H]1[C@@H](O)[C@@H](n6cnc7cc(C)c(C)cc76)O[C@@H]1CO)[C@H]5CC(N)=O)[C@@](C)(CC(N)=O)[C@@H]4CCC(N)=O)[C@@](C)(CC(N)=O)[C@@H]3CCC(N)=O)C(C)(C)[C@@H]2CCC(N)=O.[C-]#N.[Co+3],inactive: 0.59%
15,O=[N+]([O-])c1cc([N+](=O)[O-])c(Nc2nnnn2CCO)c([N+](=O)[O-])c1,inactive: -0.332%
16,O=[N+]([O-])c1cc([N+](=O)[O-])c(-c2cnn(-c3ccccc3)c2)c([N+](=O)[O-])c1,inactive: -0.308%
17,Cc1nc2ccc3ccccc3c2s1.O=[N+]([O-])c1cc([N+](=O)[O-])c(O)c([N+](=O)[O-])c1,inactive: -4.65%
18,O=[N+]([O-])c1cc([N+](=O)[O-])c(-n2nnc3ccccc32)c([N+](=O)[O-])c1,inactive: -0.518%
19,CCOP(C)(=S)SCC(=O)NC(C)C(=O)O (configuration not stated),inactive: 0.164%

row,Structure (SMILES),inhibition
1,CCOC(=O)c1ccc(NP(C)(=O)Oc2ccc(OC)cc2)cc1 (configuration not stated),inactive: -1.05%
2,CP(=O)(Nc1ccccn1)Oc1ccc(Cl)cc1 (configuration not stated),inactive: -0.983%
3,CP(=O)(Oc1ccccc1)OC(c1ccccc1)C(F)(F)F (configuration not stated),inactive: -1.22%
4,Cc1cccc(C)c1OP(C)(=O)Nc1ccc(SC(F)(F)F)cc1 (configuration not stated),inactive: 0.649%
5,Cc1cc(C)cc(OP(C)(=O)Nc2ccc(SC(F)(F)F)cc2)c1 (configuration not stated),inactive: 0.111%
6,CP(=O)(NC(=O)Nc1ccccc1)Oc1ccccc1 (configuration not stated),inactive: 0.284%
7,CCc1ccc(OP(C)(=O)N2CCN(c3ccc([N+](=O)[O-])cc3)CC2)cc1 (configuration not stated),inactive: -1.05%
8,CP(=S)(Nn1cnnc1)Oc1ccccc1 (configuration not stated),inactive: -1.62%
9,COc1ccccc1OP(C)(=O)Nc1ccccc1 (configuration not stated),inactive: -1.76%
10,CP(=O)(Nc1ccccc1Br)Oc1ccccc1 (configuration not stated),inactive: -0.251%
11,CCOC(=O)c1ccc(NP(C)(=O)Oc2ccccc2)cc1 (configuration not stated),inactive: 0.133%
12,Cc1ccc(NP(C)(=O)Oc2ccccc2)c(C)c1 (configuration not stated),inactive: -1.92%
13,COc1ccccc1OP(C)(=O)Nc1ccc(C)cc1 (configuration not stated),inactive: 1.95%
14,COc1ccc(OP(C)(=O)Nc2cccc(F)c2)cc1 (configuration not stated),inactive: -2.13%
15,COc1ccccc1OP(C)(=O)Nc1cc(Cl)ccc1C (configuration not stated),inactive: -0.303%
16,Cc1cc(C)cc(OP(C)(N)=O)c1 (configuration not stated),inactive: -1.25%
17,O=[N+]([O-])c1cc([N+](=O)[O-])c(Nc2cccnc2)c([N+](=O)[O-])c1,inactive: 1%
18,Cc1cccc(C)c1OP(C)(N)=O (configuration not stated),inactive: -1.98%
19,CC(C)(C)c1ccc(OP(C)(=O)Nc2ccc(SC(F)(F)F)cc2)cc1 (configuration not stated),inactive: -0.574%

row,Structure (SMILES),inhibition
1,O=[N+]([O-])c1ccc2c(c1)C=Nc1ccccc1O2,inactive: 0.263%
2,CCN(CC)CCCOC(=O)C(O)(c1ccccc1)c1ccccc1,inactive: -0.361%
3,Cc1c(NP(C)(=O)Oc2ccc(C(C)C)cc2)c(=O)n(-c2ccccc2)n1C (configuration not stated),inactive: -2.44%
4,O=[N+]([O-])c1cc([N+](=O)[O-])c(Nc2ccccn2)c([N+](=O)[O-])c1,inactive: -20.1%
5,CCc1ccc(OP(C)(=O)O)cc1,inactive: 0.181%
6,COc1ccccc1OP(C)(=O)Nc1ccc(C)cc1C (configuration not stated),inactive: -0.572%
7,CP(=O)(Nc1ccccn1)Oc1ccccc1 (configuration not stated),inactive: -0.542%
8,COc1ccccc1OP(C)(=O)Nc1ccc(Br)cc1 (configuration not stated),inactive: -0.0146%
9,CN(C)CCOC(=O)C(O)(c1ccccc1)C1CCCC1 (configuration not stated),inactive: 1.51%
10,COc1ccc(OP(C)(=O)Nc2ccccn2)cc1 (configuration not stated),inactive: -2.71%
11,CP(=O)(Nc1ccc(Cl)cc1Cl)Oc1ccccc1 (configuration not stated),inactive: -0.748%
12,CCCCCCCCCCCCCCCC1C[N+](C)(C)CCOP(C)(=O)O1 (configuration not stated),inactive: -1.83%
13,CP(=O)(OCCOc1ccccc1)OCCOc1ccccc1,inactive: -6.34%
14,Cc1cc(C)cc(OP(C)(=O)Nc2cccc(C(F)(F)F)c2)c1 (configuration not stated),inactive: 0.104%
15,O=C1C(O)=C([N+](=O)[O-])C(=O)C(O)=C1[N+](=O)[O-],inactive: -0.295%
16,COc1ccc(OP(C)(=O)Nc2ccccc2Br)cc1 (configuration not stated),inactive: -0.32%
17,CP(=O)(OC12CC3CC(CC(C3)C1)C2)OC12CC3CC(CC(C3)C1)C2,inactive: -0.891%
18,CCOC(=O)c1ccc(NP(C)(=O)Oc2ccc(Cl)cc2)cc1 (configuration not stated),inactive: -3.22%
19,CP(=O)(Nc1ccc(Cl)cc1)Oc1ccc(F)cc1 (configuration not stated),inactive: -2.32%
